Here are results for 1 compound from ChEMBL document CHEMBL1158524, “Synthesis and SAR of novel imidazoles as potent and selective cannabinoid CB2 receptor antagonists with high binding efficiencies” (Bioorg Med Chem Lett, 2010).

Protein sequences, listed by entry. Tags and fused reporters are not part of them.
UniProt P21554, whole entry: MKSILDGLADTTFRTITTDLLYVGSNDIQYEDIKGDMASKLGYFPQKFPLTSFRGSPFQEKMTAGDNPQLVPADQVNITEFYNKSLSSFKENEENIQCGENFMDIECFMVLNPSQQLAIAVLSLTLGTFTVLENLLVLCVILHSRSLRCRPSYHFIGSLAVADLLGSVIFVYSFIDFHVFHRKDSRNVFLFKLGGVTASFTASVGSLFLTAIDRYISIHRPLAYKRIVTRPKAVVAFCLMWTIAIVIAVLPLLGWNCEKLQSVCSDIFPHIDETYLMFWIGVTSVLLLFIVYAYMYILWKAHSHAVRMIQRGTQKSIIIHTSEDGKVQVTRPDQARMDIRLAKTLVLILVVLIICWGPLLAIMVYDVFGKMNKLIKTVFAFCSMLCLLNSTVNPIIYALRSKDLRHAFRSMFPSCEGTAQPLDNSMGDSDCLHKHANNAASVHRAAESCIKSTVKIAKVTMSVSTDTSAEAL

pKi: −log10 of the molar value.

For the assay, the target named is Cannabinoid receptor 1 (Homo sapiens, UniProt P21554). Put plainly: Displacement of [3H]CP-55940 from human CB1 receptor expressed in CHO cells. The assay is classed as cell-based. In a few lines: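 CHO cells stably transfected with human CB1 receptor. Displacement of specific CP-55,940 binding, expressed as Ki ± SEM (nM). Values are the mean of at least three independent experiments.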

By pKi is commonly meant −log10 of the Ki, conventionally taken in molar units. Higher therefore signals a small Ki. In the case of `Cc1ccc(Cn2nc(C(=O)N[C@@H]3C(C)(C)[C@@H]4CC[C@@]3(C)C4)cc2-c2ccc(Cl)c(C)c2)cc1` [SR-144528], the pKi was < 6.00.
